AlphaSeq binding of Ab-14 heavy chain variants to a spike HR2 peptide

The measurements come from Engelhart et al. 2022 (doi:10.1038/s41597-022-01779-4) through the FLAb antibody collection.

Target: peptide PDVDLGDISGINAS, taken from heptad repeat 2 (HR2) of SARS-CoV-2 spike.

The variants keep the light chain, the linker and the frameworks of Ab-14 (scFv order VH, the linker GGGGSGGGGSGGGGS, VL).
VH: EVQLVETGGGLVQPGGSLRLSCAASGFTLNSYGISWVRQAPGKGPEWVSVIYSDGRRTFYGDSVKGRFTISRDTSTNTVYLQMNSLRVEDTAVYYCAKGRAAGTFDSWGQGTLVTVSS
VL: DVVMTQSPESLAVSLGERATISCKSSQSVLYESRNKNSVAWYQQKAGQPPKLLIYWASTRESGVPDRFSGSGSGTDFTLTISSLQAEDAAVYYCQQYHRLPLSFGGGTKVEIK

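The parent was found by panning a naive human phage display library on the peptide. In library AAYL49, one, two or three CDR residues were substituted; doubles and triples were drawn at random. The assay is AlphaSeq: two haploid yeast populations carry antibody and antigen on their surface. Mating (16 h, 30 °C) was followed by selection of diploids and sequencing of their barcodes. Read counts were normalised to the haploid input and turned into Kd by a linear fit to BCL2-family pairs of known affinity, for each replicate. Each pool was mated in three replicate cultures.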

The parent's heavy chain CDRs are GFTLNSYGIS, VIYSDGRRTFYGDSVK, GRAAGTFDS; each variant's own CDRs replace them letter for letter.
Numbers give log10(Kd / nM), so 0 is 1 nM and 3 is 1 µM. Smaller is tighter.
The mean shown is taken over the replicates in which the pair was detected.
Where no diploid with the target was found in that replicate, the entry reads "ND": below detection, most likely a poor binder, though not proof of it.
Background: pairings of library AAYL49 with three empty control strains gave a value in 15% of cases (median 4.06, 5th percentile 2.83). Values in that range, when seen in few replicates, are hard to tell from nonspecific mating. For each scFv, signals with the empty controls are counted beside the result, with their mean in brackets.
Parent in this assay: reference entry 0.65, copy in this library 4.11 (one replicate of three).

| # | CDR-H1 | CDR-H2 | CDR-H3 | log10 Kd, replicates | mean, log10 nM | signal with controls |
|---|---|---|---|---|---|---|
| 1 | FFTLNSYGIS | VIYSGGRRTFYGDSVK | GRAAGRFDS | ND / ND / ND | ND | 0/9 |
| 2 | GFGLPSYGIS | VIISDGRRTFYGDSVK | GRAAGTFDS | ND / ND / ND | ND | 1/9 (3.95) |
| 3 | GFTLNSYGFS | VIYSDGRRTFYGDSVK | GRALGTFDV | ND / ND / ND | ND | 0/9 |
| 4 | GFTLNSYFIS | QIYSDGRRTFYGDSVK | GRAAATFDS | 4.18 / 4.18 / 4.25 | 4.20 | 3/9 (3.49) |
| 5 | GFTLNSVGIS | VIYMDGRRTFYGDSVK | GRAAGTFDS | 6.14 / 4.25 / ND | 5.20 | 5/9 (4.09) |
| 6 | GFTLNFYGIS | VIYSDGRRTFYGDSVK | GPAIGTFDS | ND / ND / ND | ND | 2/9 (3.48) |
| 7 | VFTLNSYGIA | VIYSDGRRTFYGDSYK | GRAAGTFDS | ND / 3.30 / ND | 3.30 | 3/9 (5.32) |
| 8 | GFTLNSYGIS | VIYSDGRRTFYGDSVK | GSSAGTRDS | ND / ND / ND | ND | 0/9 |
| 9 | GFTLNSYGIS | HIYSDGRRTFYGDSVK | GRAYGTFDS | ND / 2.49 / ND | 2.49 | 1/9 (2.62) |
| 10 | GFTLNSYGIS | VTYSHGRRTFGGDSVK | GRAAGTFDS | ND / ND / ND | ND | 2/9 (3.59) |
| 11 | GFVLNSYGIS | VIYSAGRRTFYGDFVK | GRAAGTFDS | ND / ND / ND | ND | 0/9 |
| 12 | GFTLNSYGIS | VIYSDGRHTFCGDSVK | GRAAGTFDT | 2.60 / ND / 2.52 | 2.56 | 2/9 (4.42) |
| 13 | GFTLNSYGIS | VIYSDGPRCFYGDSVK | GDAAGTFDS | 6.56 / ND / 4.01 | 5.29 | 4/9 (4.60) |
| 14 | GFTLNSYGIS | VIMSDGRRTFYGDSVK | GRANGTFIS | ND / 3.98 / 5.59 | 4.79 | 4/9 (4.29) |
| 15 | GFTLNSYGIS | QIYSDGRRSFYGDSWK | GRAAGTFDS | ND / ND / 2.39 | 2.39 | 1/9 (2.53) |
| 16 | GFTLNSYGIS | VIYSDGRRTFYGDSVS | GRAAGIFDH | ND / ND / 4.71 | 4.71 | 2/9 (4.36) |
| 17 | GFMLNSYGIS | VIYSDGRRTFYCDSVK | GRSAGTFDS | 1.47 / 1.49 / 1.38 | 1.45 | 0/9 |
| 18 | GFFLNSYGIS | VIYSPGRRTFYPDSVK | GRAAGTFDS | ND / ND / ND | ND | 1/9 (4.57) |
| 19 | GFTLNSYGLC | VIYSDGRRTFYGDSVK | GRADGTFDS | ND / 3.41 / 4.31 | 3.86 | 1/9 (5.99) |
| 20 | GFTLNSYGIS | VIYSDGRHTFYGQTVK | GRAAGTFDS | ND / ND / 3.74 | 3.74 | 0/9 |
| 21 | GFTWNSYKIS | VIYSWGRRTFYGDSVK | GRAAGTFDS | ND / ND / ND | ND | 0/9 |
| 22 | GFFLNSYGIS | VIYSQGRRTFYWDSVK | GRAAGTFDS | ND / ND / ND | ND | 1/9 (2.18) |
| 23 | GFTLNSYGIS | VIYSDGRREFYGDLVK | GEAAGTFDS | ND / ND / ND | ND | 1/9 (3.34) |
| 24 | GFTLNSYGIG | VIYSDGRRTFYYDPVK | GRAAGTFDS | ND / ND / 4.18 | 4.18 | 0/9 |
| 25 | GFTLNSYGIS | NIYQDGRRTFTGDSVK | GRAAGTFDS | 3.49 / 3.16 / ND | 3.32 | 1/9 (3.06) |
| 26 | GFTGNLMGIS | VIYSDGRRTFYGDSVK | GRAAGTFDS | ND / ND / ND | ND | 2/9 (3.24) |
| 27 | GFTLNSYGCS | VINSDGRRTFYGDSVK | GRAAGTFDR | ND / ND / ND | ND | 1/9 (3.26) |
| 28 | GFTLQSYGIS | VIYSDGRRTFYGDSSK | GRAAGTFDL | ND / ND / 3.59 | 3.59 | 0/9 |
| 29 | GFTLNSYGIS | VIYSWGRRTFYGDSVK | GRAAGTFDP | ND / ND / ND | ND | 2/9 (3.17) |
| 30 | GFTGNSAQIS | VIYSDGRRTFYGDSVK | GRAAGTFDS | ND / ND / 4.89 | 4.89 | 7/9 (4.51) |
| 31 | GFTLNSYGIS | VIYSDIRRTFYGDFVK | GRAAGTFDV | ND / 3.48 / ND | 3.48 | 1/9 (2.57) |
| 32 | GFTLVSYGIS | VIYSDGRRTFYGDSVK | GRAEGTFYS | ND / ND / ND | ND | 0/9 |
| 33 | GFTLNSYGIS | VIYEDGRRTFYGDSVP | GRAAGTFDI | 3.82 / ND / 3.67 | 3.75 | 4/9 (4.31) |
| 34 | GFTLNSLGIS | VGYSDGRRTFYGDTVK | GRAAGTFDS | ND / ND / ND | ND | 2/9 (3.52) |
| 35 | GFTLNSYGIS | VFYSDGRRTFYGSSVK | GRAAGTHDS | ND / ND / ND | ND | 0/9 |
| 36 | GFTLNSYGIS | VIYSGGRRTFYRDSAK | GRAAGTFDS | ND / ND / ND | ND | 0/9 |
| 37 | LFTLNSYGIS | VGYSDGRRTFVGDSVK | GRAAGTFDS | ND / 3.63 / ND | 3.63 | 1/9 (3.30) |
| 38 | GFTLNSYYIS | VIYSDGRRPFYGDSVE | GRAAGTFDS | ND / 4.23 / ND | 4.23 | 1/9 (3.64) |
| 39 | LFTLNSYGIS | VIYSDGRRMFLGDSVK | GRAAGTFDS | ND / ND / 3.09 | 3.09 | 1/9 (2.87) |
| 40 | GFTLSSYGIS | VIYSDGRRTFYGDSVK | GRAAGMFDS | ND / ND / 4.02 | 4.02 | 0/9 |
| 41 | GFTLNEYGIS | DIYSDGRRTFYGDSVK | GRAAGTFDS | ND / 3.23 / ND | 3.23 | 3/9 (3.85) |
| 42 | GFTLYSYGIS | VIYSCGRRTFYGDSVD | GRAAGTFDS | ND / ND / 4.14 | 4.14 | 0/9 |
| 43 | GFTLNSYGIS | VIYSDGRRTFYGDSVK | GRSALTFDS | 3.91 / ND / 3.83 | 3.87 | 4/9 (3.92) |
| 44 | IFTLNSYGIS | VIYSDPRRTFYGDGVK | GRAAGTFDS | ND / ND / 3.68 | 3.68 | 2/9 (4.40) |
| 45 | GFTLNSYGIS | VIYSDARRTFYGDSVK | GRAYGTFDV | ND / ND / ND | ND | 1/9 (3.67) |
| 46 | GFTLNSYGIS | VAYSDGRRKFYGDSRK | GRAAGTFDS | ND / ND / ND | ND | 0/9 |
| 47 | GFTLNSYGIS | VIYSDGRRTFYGDSVK | GRAVGTFDS | 1.50 / 1.38 / 1.34 | 1.41 | 0/9 |

Excerpt, the final 3 entries:

CDR-H1,CDR-H2,CDR-H3,"log10 Kd, replicates","mean, log10 nM",signal with controls
GFTLNSYGIS,VIYSDARRTFYGDSVK,GRAYGTFDV,ND / ND / ND,ND,1/9 (3.67)
GFTLNSYGIS,VAYSDGRRKFYGDSRK,GRAAGTFDS,ND / ND / ND,ND,0/9
GFTLNSYGIS,VIYSDGRRTFYGDSVK,GRAVGTFDS,1.50 / 1.38 / 1.34,1.41,0/9